{"source": "paper PMC12799515", "about": "(Journal of Orthopaedic Translation, 2025)", "key": {"inTPCs [1]": {"system": "inTPCs", "experiment": "Cell viability", "assay_type": "cell-based, C57BL/6 J mice", "settings": "1 μM CCCP or 5 μM CsA, 48 h", "procedure,_shortened": "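Mouse tendon cells (passage 3–4) were seeded in 96-well plates and exposed to test compound at varying concentrations (0, 0.1, 0.5, 1, 5, 10 μM for the inhibitor) for 48 h. They were then incubated with 10% CCK-8 at 37 °C for 1 h, and absorbance was read at 450 nm to calculate viability.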"}, "inTPCs [2]": {"system": "inTPCs", "experiment": "Apoptosis", "assay_type": "cell-based, C57BL/6 J mice", "settings": "1 μM CCCP or 5 μM CsA"}}, "data": [{"substance": "cyclosporin A [CsA]", "values": [{"measurement": "cell viability (poisoning)", "setting": "inTPCs [1]", "result": "did not cause poisoning"}, {"measurement": "apoptosis", "setting": "inTPCs [2]", "result": "did not cause poisoning (Fig. 3A and B) or apoptosis"}]}]}
